Laboratory results: paper PMC8286815 (Biochemical Journal, 2021)

Biological target: T1, SARS-CoV-2 RdRp (nsp12/nsp7/nsp8) (Severe acute respiratory syndrome coronavirus 2, UniProt P0DTD1)
T1 construct: added initiator Met before nsp12 (N); made in house; host or cells: Sf9 insect cells (Spodoptera frugiperda), baculovirus
Experiment: Gel-based polymerisation (primer-extension) assay
Assay type: biochemical

## O=C1C(=O)N(Cc2ccc(Cl)c(Cl)c2)c2ccccc21 [MDK-83190]
  Inhibition of RNA duplex formation: partial inhibition
